This note sets out measurements from patent publication US6506749B2, “7-oxo-pyridopyrimidines (I)” (Syntex (U.S.A.) LLC, priority 2000, dated 2003).

Chains of the proteins cited; added tags and fusions are not shown.
UniProt Q16539, whole entry: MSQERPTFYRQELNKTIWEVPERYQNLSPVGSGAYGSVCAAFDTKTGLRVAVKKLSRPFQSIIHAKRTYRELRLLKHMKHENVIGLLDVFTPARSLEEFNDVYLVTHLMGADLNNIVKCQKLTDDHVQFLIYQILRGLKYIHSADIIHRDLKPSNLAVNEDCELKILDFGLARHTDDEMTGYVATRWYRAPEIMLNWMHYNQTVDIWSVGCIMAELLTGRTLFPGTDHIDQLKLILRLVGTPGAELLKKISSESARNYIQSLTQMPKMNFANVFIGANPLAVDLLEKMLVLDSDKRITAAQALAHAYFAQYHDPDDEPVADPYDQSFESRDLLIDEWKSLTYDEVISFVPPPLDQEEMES

SMILES strings stand for the structures.

This experiment concerns the target T1, p38 MAP kinase (Homo sapiens, UniProt Q16539).
T1 construct: made in house; host or cells: E. coli (co-expressed with SEK-1 and MEKK to phosphorylate p38)
Description: in vitro inhibition of p-38 (MAP) kinase, transfer of γ-33P from ATP to Myelin Basic Protein. The experiment is classed as biochemical. Here is the method:
This example illustrate an assay protocol for determining in vitro inhibition of p-38 (MAP) Kinase.
The phosphorylated form of the recombinant p38 MAP kinase was expressed with SEK-1 and MEKK in E. Coli and then purified by affinity chromatography using a Nickel column.
The phosphorylated p38 MAP kinase was diluted in kinase buffer (20 mM 3-(N-morpholino)propanesulfonic acid, pH 7.2, 25 mM β-glycerol phosphate, 5 mM ethylene glycol-bis(beta-aminoethyl ether)-N,N,N′,N′-tetraacetic acid, 1 mM sodium vanadate, 1 mM dithiothreitol, 40 mM magnesium chloride). Test compound dissolved in DMSO or only DMSO (control) was added and the samples were incubated for 10 min at 30° C. The kinase reaction was initiated by the addition of a substrate cocktail containing MBP and γ-^33P-ATP. After incubating for an additional 20 min at 30° C., the reaction was terminated by adding 0.75% phosphoric acid. The phosphorylated MBP was then separated from the residual γ-^33P-ATP using a phosphocellulose membrane (Millipore, Bedford, Mass.) and quantitated using a scintillation counter (Packard, Meriden, Conn.).

As usually defined, the IC50 is the concentration needed to halve the response being measured. Low readings indicate higher potency, high ones lower potency.

The compound `Cn1c(=O)c(-c2ccccc2Cl)cc2cnc(NC3CCOCC3)nc21` [Example 63] gave an IC50 of 7.3 nM.
